Measured values published in PubChem BioAssay AID2100 (National Center for Advancing Translational Sciences (NCATS), 2009).
The entries are a selection whose mix differs from that of the whole data set. Records with an inconclusive call do not appear. Calls of active or inactive are those of the source. Calls follow the shape of the dose curve; as a rule, active = well fitted inhibition curve with a large enough effect; inconclusive = small, poorly fitted or top-dose-only effect, or another doubt; inactive = no such curve, though single readings can be large or run the other way.
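Also: 0% = full enzyme reaction and -100% = no-enzyme basal signal; the screen sought inhibitors and activators.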

The compounds below were run against Lysosomal alpha-glucosidase (Homo sapiens) (UniProt P10253) (assay: qHTS Assay for Inhibitors and Activators of Human alpha-Glucosidase Cleavage of Glycogen). Conditions: recombinant GAA, glycogen substrate, Amplex Red glucose oxidase fluorescence; at 76.4 µM (top of the series).
Description: NIH Chemical Genomics Center [NCGC] NIH Molecular Libraries Probe Production Centers Network [MLPCN] MLPCN Grant: R03 MH084841-01 Assay Submitter (PI): Wei Zheng NCGC Assay Overview: Alpha-glucosidase is responsible for the hydrolysis of terminal, non-reducing 1,4-linked alpha-D-glucose residues, which releases alpha-D-glucose. It is a lysosomal hydrolase that is required for the degradation of a small percentage (1-3%) of cellular glycogen in humans. Deficiency of this enzyme results in glycogen-storage disease type II (GSDII), also referred to as Pompe disease, an autosomal recessive disorder. Structurally normal glycogen is accumulated in the lysosomes and cytoplasm in affected patients, primarily in muscle tissues. Excessive glycogen storage within lysosomes may interrupt normal functioning of other organelles and leads to cellular injury. In turn, this leads to enlargement and dysfunction of the entire organ involved (eg: cardiomyopathy and muscle weakness). It has been reported that the improper folding and trafficking of alpha-glucosidase resulting from genetic mutations may account for a significant number of Pompe patients. […] We optimized this alpha-glucosidase assay in 1536-well plate format for identification of novel small molecule inhibitors or activators with structures other than the sugar analogs in order to develop new pharmacological chaperones. Previous assays of alpha-Glucosidase have utilized a non-natural fluorescent substrate to probe enzyme activity. The present assay measures enzyme activity on glycogen using a coupled-assay system to glucose oxidase.
NCGC Assay Protocol Summary: This is an enzyme assay using glycogen from bovine liver (Sigma catalog #: G0885) as the substrate and recombinant human alpha-glucosidase as the enzyme preparation. Upon hydrolysis of the substrate, the glucose product can be detected using the Amplex Red Glucose Oxidase Assay Kit (Invitrogen catalog #: A22189). The product of this reaction can be read with a fluorescence plate reader with an excitation at 573 nm and an emission at 610 nm. Data were normalized to the controls for basal activity (without enzyme) and 100% activity (with enzyme). The AC50 values were determined from concentration-response data modeled with the standard Hill equation. Assay buffer for enzyme reaction: 50 mM citric acid (titrated with potassium phosphate to pH 5.0), 0.01% Tween-20 (pH 5.0 is an optimal condition for this enzyme assay) Assay buffer for Amplex Red reaction: Tris-HCl, pH 7.5 1536-well assay protocol for the alpha-glucosidase assay: (1) Add 2 ul/well alpha-glucosidase enzyme solution (4 nM final) (2) Add 23 nL compounds in DMSO solution. The final titration was 0.7 nM to 77 uM. (3) Add 1 ul of glycogen substrate solution (30 ug) (4) Incubate at 37 C for 40 min (5) Add 2 ul tris-HCl buffer with Amplex Red reagents (6) Incubate 45 min at room temperature. (7) Detect the assay plate in a ViewLux plate reader (PerkinElmer) with Ex=573 nm and Em=610nm. Keywords: Alpha-glucosidase, Pompe Disease, pharmacological chaperone, chaperone therapy, high throughput screening, alpha-glucosidase inhibitor, MLSMR, MLSCN, NIH Roadmap, qHTS and NCGC
For CC(C)(C)c1ccc(OP(C)(=O)Nc2ccc(SC(F)(F)F)cc2)cc1 (stereo not given), the activity change, negative = inhibition was inactive: -11.6%.
Cc1cccc(C)c1OP(C)(N)=O (stereo not given) was tested, and the activity change, negative = inhibition was inactive: 1.69%.
For O=[N+]([O-])c1ccc2c(c1)C=Nc1ccccc1O2, the activity change, negative = inhibition was inactive: -27.1%.
COc1ccccc1OP(C)(=O)Nc1cc(Cl)ccc1C (stereo not given) was tested, and the activity change, negative = inhibition was inactive: -9.58%.
COc1ccc(OP(C)(=O)Nc2cccc(F)c2)cc1 (stereo not given) was tested, and the activity change, negative = inhibition was inactive: 1.35%.
With Cc1cc(C)cc(OP(C)(N)=O)c1 (stereo not given) the activity change, negative = inhibition was inactive: 6.08%.
CCOC(=O)c1ccc(NP(C)(=O)Oc2ccccc2)cc1 (stereo not given) was tested, and the activity change, negative = inhibition was inactive: -2.32%.
With COc1ccccc1OP(C)(=O)Nc1ccc(C)cc1 (stereo not given) the activity change, negative = inhibition was inactive: -3.05%.
In the case of Cc1ccc(NP(C)(=O)Oc2ccccc2)c(C)c1 (stereo not given), the activity change, negative = inhibition is reported as inactive: 1.07%.
In the case of CCN(CC)CCCOC(=O)C(O)(c1ccccc1)c1ccccc1, the activity change, negative = inhibition is reported as inactive: 4.44%.
For CCc1ccc(OP(C)(=O)N2CCN(c3ccc([N+](=O)[O-])cc3)CC2)cc1 (stereo not given), the activity change, negative = inhibition was inactive: -7.16%.
With CP(=O)(NC(=O)Nc1ccccc1)Oc1ccccc1 (stereo not given) the activity change, negative = inhibition was inactive: -2.67%.
In the case of Cc1cc(C)cc(OP(C)(=O)Nc2ccc(SC(F)(F)F)cc2)c1 (stereo not given), the activity change, negative = inhibition is reported as inactive: -17.9%.
In the case of Cc1cccc(C)c1OP(C)(=O)Nc1ccc(SC(F)(F)F)cc1 (stereo not given), the activity change, negative = inhibition is reported as inactive: 5.33%.
CP(=O)(Nc1ccc(SC(F)(F)F)cc1)Oc1ccc(Cl)cc1 (stereo not given) was tested, and the activity change, negative = inhibition was inactive: -8.08%.
With CP(=O)(Oc1ccccc1)OC(c1ccccc1)C(F)(F)F (stereo not given) the activity change, negative = inhibition was inactive: -1.67%.
In the case of CP(=O)(Nc1ccccn1)Oc1ccc(Cl)cc1 (stereo not given), the activity change, negative = inhibition is reported as inactive: 2.82%.
CCOP(C)(=S)SCC(=O)NC(C)C(=O)O (stereo not given) was tested, and the activity change, negative = inhibition was inactive: -14.7%.
In the case of CCOC(=O)c1ccc(NP(C)(=O)Oc2ccc(OC)cc2)cc1 (stereo not given), the activity change, negative = inhibition is reported as inactive: 19.8%.
For COc1ccccc1OP(C)(=O)Nc1ccccc1 (stereo not given), the activity change, negative = inhibition was inactive: 4.44%.
CP(=O)(Nc1ccccc1Br)Oc1ccccc1 (stereo not given) was tested, and the activity change, negative = inhibition was inactive: 13.4%.
For CP(=S)(Nn1cnnc1)Oc1ccccc1 (stereo not given), the activity change, negative = inhibition was inactive: 3.04%.
In the case of O=[N+]([O-])c1cc([N+](=O)[O-])c(Nc2nnnn2CCO)c([N+](=O)[O-])c1, the activity change, negative = inhibition is reported as inactive: 0.593%.
With CP(=O)(Nc1ccc(SC(F)(F)F)cc1)Oc1ccccc1 (stereo not given) the activity change, negative = inhibition was inactive: -8.16%.
CCCOc1ccc(NP(C)(=O)Oc2ccc(Cl)cc2)cc1 (stereo not given) was tested, and the activity change, negative = inhibition was inactive: -3.51%.
With COc1ccccc1OP(C)(=O)Nc1c(C)cccc1C (stereo not given) the activity change, negative = inhibition was inactive: 1.21%.
With CN1CCCCC1COC(=O)C1(O)c2ccccc2CCc2ccccc21 (stereo not given) the activity change, negative = inhibition was inactive: -12.3%.
For O=[N+]([O-])c1cc([N+](=O)[O-])c(-n2nnc3ccccc32)c([N+](=O)[O-])c1, the activity change, negative = inhibition was inactive: 3.89%.
In the case of Cc1nc2ccc3ccccc3c2s1.O=[N+]([O-])c1cc([N+](=O)[O-])c(O)c([N+](=O)[O-])c1, the activity change, negative = inhibition is reported as inactive: 2.18%.
In the case of Cc1cc(C)cc(OP(C)(=O)Nc2ccc(C)cc2C)c1 (stereo not given), the activity change, negative = inhibition is reported as inactive: -1.71%.
With CCOC(=O)c1ccc(NP(C)(=O)Oc2cc(C)cc(C)c2)cc1 (stereo not given) the activity change, negative = inhibition was inactive: 14.4%.
For COc1ccccc1OP(C)(=O)Nc1cccc(Br)c1 (stereo not given), the activity change, negative = inhibition was inactive: -5.28%.
For CP(=O)(Nc1cccc(Br)c1)Oc1ccccc1 (stereo not given), the activity change, negative = inhibition was inactive: -5.47%.
Cc1cc(C)cc(OP(C)(=O)Nc2ccccn2)c1 (stereo not given) was tested, and the activity change, negative = inhibition was inactive: 12.6%.
Cc1ccc(C)c(NP(C)(=O)Oc2ccccc2)c1 (stereo not given) was tested, and the activity change, negative = inhibition was inactive: -4.82%.
CC1=NCCc2c1[nH]c1ccccc21.O=[N+]([O-])c1cc([N+](=O)[O-])c(O)c([N+](=O)[O-])c1 was tested, and the activity change, negative = inhibition was inactive: -4.85%.
COc1ccc(OP(C)(=O)Nc2ccc(SC(F)(F)F)cc2)cc1 (stereo not given) was tested, and the activity change, negative = inhibition was inactive: 0.264%.
For CCOC(=O)c1ccc(NP(C)(=O)Oc2ccc(F)cc2)cc1 (stereo not given), the activity change, negative = inhibition was inactive: 2.06%.
In the case of CP(=O)(Nc1ccccc1)Oc1ccc(F)cc1 (stereo not given), the activity change, negative = inhibition is reported as inactive: 3.89%.
With CCN(CC)CCCOC(=O)C(O)(c1ccccc1)C1CCCCC1 (stereo not given) the activity change, negative = inhibition was inactive: 6.12%.
In the case of CC(C)c1ccc(OP(C)(=O)Nc2ccc(SC(F)(F)F)cc2)cc1 (stereo not given), the activity change, negative = inhibition is reported as inactive: -16.4%.
CP(=O)(Nc1ccccc1F)Oc1ccccc1 (stereo not given) was tested, and the activity change, negative = inhibition was inactive: 6.06%.
For O=C(OCCN1CCN(CCOCc2ccccc2)CC1)C(O)(c1ccccc1)c1ccccc1, the activity change, negative = inhibition was inactive: 4.84%.
CCOP(C)(=S)SCC(=O)NC(C)(CC)C(=O)O (stereo not given) was tested, and the activity change, negative = inhibition was inactive: 7.26%.
For CP(=O)(Nc1ccc(SC(F)(F)F)cc1)Oc1ccc(F)cc1 (stereo not given), the activity change, negative = inhibition was inactive: -4.56%.
With Cc1ccccc1NP(C)(=O)Nc1ccccc1C the activity change, negative = inhibition was inactive: -2.58%.
In the case of CP(=O)(Nc1ccc2c(c1)OCCO2)Oc1ccccc1 (stereo not given), the activity change, negative = inhibition is reported as inactive: 1.74%.
With COc1ccc(NP(C)(=O)Oc2ccccc2OC)cc1 (stereo not given) the activity change, negative = inhibition was inactive: 6.05%.
For CN(C)CCOC(=O)C(O)(c1ccccc1)C1CCCCC1 (stereo not given), the activity change, negative = inhibition was inactive: 5.62%.
With Cc1cc(-c2cccc3ccccc23)c(C)cn1.O=[N+]([O-])c1cc([N+](=O)[O-])c(O)c([N+](=O)[O-])c1 the activity change, negative = inhibition was inactive: 3.76%.
For O=[N+]([O-])c1ccc(OP2(=O)COCCO2)cc1 (stereo not given), the activity change, negative = inhibition was inactive: -10.1%.
With CP(=O)(OC12CC3CC(CC(C3)C1)C2)OC12CC3CC(CC(C3)C1)C2 the activity change, negative = inhibition was inactive: -8.52%.
In the case of CCOC(=O)c1ccc(NP(C)(=O)Oc2ccc(Cl)cc2)cc1 (stereo not given), the activity change, negative = inhibition is reported as inactive: -6.2%.
In the case of CP(=O)(Oc1ccccc1)N1CCOC1=O (stereo not given), the activity change, negative = inhibition is reported as inactive: 8.24%.
For CCc1ccc(OP(C)(=O)Nc2cccnc2)cc1 (stereo not given), the activity change, negative = inhibition was inactive: -9.72%.
O=C(OCCCN1CCCC1)C(O)(c1ccccc1)C1CCCCC1 (stereo not given) was tested, and the activity change, negative = inhibition was inactive: -3.76%.
For CCN(CC)CC(O)COC(=O)C(O)(c1ccccc1)C1CCCCC1 (stereo not given), the activity change, negative = inhibition was inactive: -1.72%.
With COc1ccc(OP(C)(=O)Nc2ccc(Br)cc2)cc1 (stereo not given) the activity change, negative = inhibition was inactive: -0.954%.
CN(C)C(=O)c1c([N+](=O)[O-])cc([N+](=O)[O-])cc1[N+](=O)[O-] was tested, and the activity change, negative = inhibition was inactive: 7.43%.
With CP(=O)(Nc1ccc(Cl)cc1)Oc1ccc(F)cc1 (stereo not given) the activity change, negative = inhibition was inactive: -8.41%.
For CC(C)(C)c1ccc(OP(C)(=O)O)cc1, the activity change, negative = inhibition was inactive: 8.38%.
For COc1ccccc1OP(C)(=O)Nc1ccccc1Br (stereo not given), the activity change, negative = inhibition was inactive: -18.1%.
With CN(C)CCOC(=O)C(O)(c1ccccc1)C1CCCC1 (stereo not given) the activity change, negative = inhibition was inactive: 6.85%.
COc1ccc(OP(C)(=O)Nc2ccccn2)cc1 (stereo not given) was tested, and the activity change, negative = inhibition was inactive: 8.24%.
For COc1ccccc1OP(C)(=O)Nc1ccc(Br)cc1 (stereo not given), the activity change, negative = inhibition was inactive: 4.43%.
In the case of CCc1ccc(OP(C)(=O)O)cc1, the activity change, negative = inhibition is reported as inactive: -6.88%.
In the case of CP(=O)(Nc1ccccn1)Oc1ccccc1 (stereo not given), the activity change, negative = inhibition is reported as inactive: 10.9%.
With COc1ccccc1OP(C)(=O)Nc1ccc(C)cc1C (stereo not given) the activity change, negative = inhibition was inactive: 1.94%.
In the case of O=[N+]([O-])c1cc([N+](=O)[O-])c(Nc2ccccn2)c([N+](=O)[O-])c1, the activity change, negative = inhibition is reported as inactive: -4.98%.
In the case of Cc1c(NP(C)(=O)Oc2ccc(C(C)C)cc2)c(=O)n(-c2ccccc2)n1C (stereo not given), the activity change, negative = inhibition is reported as inactive: 2.43%.
In the case of COc1ccc(OP(C)(=O)Nc2ccccc2Br)cc1 (stereo not given), the activity change, negative = inhibition is reported as inactive: -4.84%.
In the case of COc1ccccc1OP(C)(=O)Nc1ccc(C)c(C)c1 (stereo not given), the activity change, negative = inhibition is reported as inactive: 11.1%.
In the case of Cc1cc(C)cc(OP(C)(=O)Nc2cccc(C(F)(F)F)c2)c1 (stereo not given), the activity change, negative = inhibition is reported as inactive: -18.1%.
For CP(=O)(OCCOc1ccccc1)OCCOc1ccccc1, the activity change, negative = inhibition was inactive: -4.42%.
In the case of CP(=O)(Nc1ccc(Cl)cc1Cl)Oc1ccccc1 (stereo not given), the activity change, negative = inhibition is reported as inactive: 6.82%.
